pIC50: −log10 of the molar value.
Biological target: Adenosine receptor A3 (Homo sapiens, UniProt P0DMS8)
Experiment: Inhibitory concentration as antagonistic activity against cAMP generation inhibited by IB-MECA in CHO cell membranes transfected with human Adenosine A3 receptor
Assay type: functional, cell-based

Amino acid sequences for entries named in this document (tags omitted).
UniProt P0DMS8, whole entry: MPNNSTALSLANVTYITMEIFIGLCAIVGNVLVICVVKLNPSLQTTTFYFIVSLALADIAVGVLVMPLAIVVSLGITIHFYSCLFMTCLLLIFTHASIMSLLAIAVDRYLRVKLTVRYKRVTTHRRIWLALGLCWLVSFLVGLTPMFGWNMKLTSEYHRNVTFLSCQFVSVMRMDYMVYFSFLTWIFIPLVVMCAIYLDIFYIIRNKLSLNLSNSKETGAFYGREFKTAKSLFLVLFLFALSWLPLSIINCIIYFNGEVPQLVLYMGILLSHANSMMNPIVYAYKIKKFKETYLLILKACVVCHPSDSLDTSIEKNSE

## CCCn1cc2c(nc(NC(=O)Nc3ccc(OC)cc3)n3nc(-c4ccco4)nc23)n1
  pIC50: 8.35
